Patent EP4563573A1, “COMPOUND, AND PREPARATION METHOD THEREFOR AND USE THEREOF IN PREPARATION OF SEH INHIBITOR AND PPARS AGONIST” (Shenyang Pharmaceutical University, priority 2023, dated 2024)

Protein sequences, listed by entry. Tags and fused reporters are not part of them. Residues count along the entry.
UniProt P34914, whole entry: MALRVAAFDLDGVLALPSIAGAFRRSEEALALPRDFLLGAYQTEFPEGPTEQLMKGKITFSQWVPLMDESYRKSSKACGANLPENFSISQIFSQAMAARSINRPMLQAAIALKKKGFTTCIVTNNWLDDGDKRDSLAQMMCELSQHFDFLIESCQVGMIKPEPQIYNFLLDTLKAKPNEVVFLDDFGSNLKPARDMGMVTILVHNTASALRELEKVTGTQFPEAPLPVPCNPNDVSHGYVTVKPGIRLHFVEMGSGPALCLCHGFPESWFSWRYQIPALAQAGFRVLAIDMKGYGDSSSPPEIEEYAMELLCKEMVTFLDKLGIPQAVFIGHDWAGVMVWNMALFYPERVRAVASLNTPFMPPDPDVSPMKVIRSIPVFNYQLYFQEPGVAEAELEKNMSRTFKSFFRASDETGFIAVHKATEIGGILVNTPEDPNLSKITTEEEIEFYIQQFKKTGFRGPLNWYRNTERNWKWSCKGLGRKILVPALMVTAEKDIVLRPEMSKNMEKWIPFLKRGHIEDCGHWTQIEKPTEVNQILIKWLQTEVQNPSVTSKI
UniProt P37231, 204-505 limits assumed: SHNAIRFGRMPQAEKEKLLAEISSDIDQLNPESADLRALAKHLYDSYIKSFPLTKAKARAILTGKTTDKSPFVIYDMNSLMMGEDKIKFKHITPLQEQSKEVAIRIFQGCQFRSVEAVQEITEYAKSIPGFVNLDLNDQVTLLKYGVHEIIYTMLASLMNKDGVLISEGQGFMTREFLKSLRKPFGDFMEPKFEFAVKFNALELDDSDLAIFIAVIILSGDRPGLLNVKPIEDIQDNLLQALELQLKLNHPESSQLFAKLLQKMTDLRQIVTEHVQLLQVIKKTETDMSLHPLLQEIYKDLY
UniProt P34913, whole entry: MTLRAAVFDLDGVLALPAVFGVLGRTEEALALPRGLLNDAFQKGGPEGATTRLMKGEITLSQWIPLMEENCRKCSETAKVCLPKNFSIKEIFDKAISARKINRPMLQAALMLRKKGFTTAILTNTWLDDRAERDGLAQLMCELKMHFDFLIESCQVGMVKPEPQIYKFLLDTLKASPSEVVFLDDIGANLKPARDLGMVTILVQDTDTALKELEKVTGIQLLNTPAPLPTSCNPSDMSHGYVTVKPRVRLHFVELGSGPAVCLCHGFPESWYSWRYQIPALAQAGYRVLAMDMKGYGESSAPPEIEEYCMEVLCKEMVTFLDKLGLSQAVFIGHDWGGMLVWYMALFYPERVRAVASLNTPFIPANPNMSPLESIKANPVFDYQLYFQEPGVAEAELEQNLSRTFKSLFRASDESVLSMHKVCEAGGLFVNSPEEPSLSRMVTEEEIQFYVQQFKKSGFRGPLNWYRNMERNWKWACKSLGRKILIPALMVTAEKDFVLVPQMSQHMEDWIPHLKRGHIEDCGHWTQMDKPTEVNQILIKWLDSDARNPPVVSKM

Columns and labels:
[1] = biological target: murine sEH (MsEH) (Mus musculus, UniProt P34914); settings: tested form: free
[2] = biological target: PPARγ (Homo sapiens, UniProt P37231); assay: PPARγ agonist activity test (luciferase reporter gene); type: cell-based; settings: relative to Rosiglitazone; tested form: free
[3] = biological target: recombinant human sEH (HsEH) (Homo sapiens, UniProt P34913); settings: read-out: HsEH IC50, PHOME substrate, tested form: free

IC50 [1]: 1.4 nM | PPARγ (compared with Rosiglitazone, %) [2]: 0.6% | IC50 [3]: 0.6 nM
Compound: O=C(O)CC(=O)Nc1ccc(O[C@H]2CC[C@H](NC(=O)Nc3ccc(OC(F)(F)F)c(F)c3)CC2)cc1
